Measured values published in US11793886B2, “Hydrophilic linkers and conjugates thereof” (GLYKOS FINLAND OY, priority 2017, dated 2023).

Assays:
[1] = Pharmacokinetics in mice, human IgG (ADC) in serum by ELISA; conditions: single i.v. dose 10 mg/kg, up to 15 d
NCI-N87 cells = assay: In vivo efficacy in subcutaneous HER2-positive tumor xenograft mouse model; set-up: species or system NU(NCr)-Foxnlnu nude mice; conditions: NCI-N87 xenograft mice, IV four times at seven day intervals
Source text: Seventy five (75) NU(NCr)-Foxnlnu nude mice (9-10 weeks old) were obtained from the Harlan Laboratories and went through 1-week acclimatization per IACUC guidelines (IACUC study LC03337 protocol approval on Jan. 29, 2018; Altogen Labs, Austin, Tex., USA). Mice were housed at Altogen Labs animal facility. The purpose of the study was to test in vivo efficacy of anti-HER2 antibody-drug conjugates (ADCs) compared to control treatment in a subcutaneous HER2-positive tumor xenograft mouse model (NCI-N87 cells, inoculated 1 million cells/mouse in 0.1 ml PBS mixed 1:1 with Matrigel). Trastuzumab-based ADCs conjugated at DAR=8 with maleimidocaproyl-Val-Ser(Glc)-PABC-MMAU were prepared and characterized as described above. Tumors were allowed to grow to approximately 100-150 cubic mm, after which the mice were randomly divided into groups of five mice/group with similar initial tumor sizes between the groups. Treatments were given IV four times at seven day intervals (i.e. once weekly for four weeks). Unconjugated antibody (trastuzumab, positive control) and PBS (negative control) were used in this study as control treatments. Tumor volume data were recorded twice a week. Each animal was evaluated individually and euthanized at the end of the study. Clinical signs and general behavior of the animals is observed in connection with dosing and sampling. Any unusual signs or behavior were recorded. At the end of the study, tumors were prepared and weighed.

[2] = system: HER2+ SKOV-3 ovarian cancer cells; assay: Cytotoxicity assay, serial dilution incubated with cells for four days, viability with PrestoBlue reagent; conditions: read-out: IC50 (cytotoxicity); SKOV-3 cells, Trastuzumab ADCs with DAR=8, FIG. 6

Substance	Retention in circulation (in words) [1]	Average tumor size at end of study (NCI-N87 cells) [mm^3]	IC50 [2] [nM]	Tumor growth inhibition (in words) (NCI-N87 cells)
T-vc-MMAE DAR = 8: trastuzumab-maleimidocaproyl-Val-Cit-PABC-MMAE conjugate (DAR=8) [reference compound]	rapidly lost from circulation			
Trastuzumab: anti-HER2 antibody Trastuzumab (Herceptin, Roche), naked antibody		731		
trastuzumab-maleimidocaproyl-Val-Ser(Glc)-PABC-MMAU: Trastuzumab conjugated via reduced cysteines with maleimidocaproyl-Val-Ser(Glc)-PABC-MMAU, drug-to-antibody ratio about 8		477	0.073	effectively inhibited tumor growth in vivo
